Experimental data from patent US7960404B2, “Spirocyclic cyclohexane compounds” (dated 2011).

Protein sequences, listed by entry. Tags and fused reporters are not part of them. Lines headed by an entry give the natural chain unless they say otherwise; changes in a name come on top.
UniProt P41146: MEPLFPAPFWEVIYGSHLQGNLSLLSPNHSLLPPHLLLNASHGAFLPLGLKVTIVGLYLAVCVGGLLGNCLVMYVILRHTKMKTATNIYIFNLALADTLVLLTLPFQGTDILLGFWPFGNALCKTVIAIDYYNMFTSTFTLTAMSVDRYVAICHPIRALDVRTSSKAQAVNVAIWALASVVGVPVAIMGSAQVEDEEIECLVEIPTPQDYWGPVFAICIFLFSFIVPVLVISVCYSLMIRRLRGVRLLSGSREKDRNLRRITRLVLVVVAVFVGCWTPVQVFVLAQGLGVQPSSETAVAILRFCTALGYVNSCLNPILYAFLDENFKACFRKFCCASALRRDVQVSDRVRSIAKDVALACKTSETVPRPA
UniProt P35372, whole entry, looked up: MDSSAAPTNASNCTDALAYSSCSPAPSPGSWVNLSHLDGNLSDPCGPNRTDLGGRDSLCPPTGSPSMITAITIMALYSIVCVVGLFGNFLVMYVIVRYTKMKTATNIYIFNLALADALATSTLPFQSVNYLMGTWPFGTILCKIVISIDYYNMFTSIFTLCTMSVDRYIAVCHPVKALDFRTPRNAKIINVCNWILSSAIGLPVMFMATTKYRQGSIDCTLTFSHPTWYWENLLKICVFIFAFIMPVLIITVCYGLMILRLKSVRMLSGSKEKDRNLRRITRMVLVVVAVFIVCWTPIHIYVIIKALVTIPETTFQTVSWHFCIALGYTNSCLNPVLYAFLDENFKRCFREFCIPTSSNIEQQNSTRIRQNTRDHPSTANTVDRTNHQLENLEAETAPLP

What was measured:
ORL1 receptor = ORL1 receptor (Homo sapiens, UniProt P41146); assay: ORL1 receptor binding assay with 3H-nociceptin/orphanin FQ (SPA)
human μ-opiate receptor = human μ-opiate receptor (Homo sapiens, UniProt P35372); assay: μ-opiate receptor binding assay with [3H] naloxone (SPA)
[1] = Metabolic stability, incubation with human liver microsomes; settings: for Conversion rate for human microsomes (300 pmol/ml): substrate 1 μmol/l, 37° C.
[2] = Metabolic stability, incubation with mouse liver microsomes; settings: substrate 1 μmol/l, 37° C.
[3] = Microsomal biotransformation / metabolite formation, general statements
[4] = read-out: Ki (ORL1) mean, series R3=phenyl, R8=F, X=O
[5] = read-out: Ki (μ) mean, series R3=phenyl, R8=F, X=O

Molecule: Fc1ccc2[nH]c3c(c2c1)CCOC31CCC(Nc2ccccc2)(c2ccccc2)CC1 (stereo not drawn)
- % inhibition (ORL1) [1 μM] (ORL1 receptor; series R3=phenyl, R8=F, X=O): −8%
- Ki (ORL1 receptor; [4]): 2900 nM
- % inhibition (μ) [1 μM] (human μ-opiate receptor; series R3=phenyl, R8=F, X=O): −16%
- Ki (human μ-opiate receptor; [5]): 6940 nM

Molecule: Fc1cccc(C2(N3CCC3)CCC3(CC2)OCCc2c3[nH]c3ccccc23)c1 (stereo not drawn)
- Ki (ORL1 receptor; read-out: Ki (ORL1)): 4.8 nM
- Ki (human μ-opiate receptor; read-out: Ki (μ)): 2 nM

Molecule: CN(C)C1(c2ccccc2)CCC2(CC1)OCCc1c2[nH]c2ccc(F)cc12 (stereo not drawn)
- % inhibition (ORL1) [1 μM] (ORL1 receptor; series R3=phenyl, R8=F, X=O): 99%
- Ki (ORL1 receptor; [4]): 3.2 nM
- Conversion rate for human microsomes (300 pmol/ml) [1]: 0.0300 nmol/min/nmol P450
- % inhibition (μ) [1 μM] (human μ-opiate receptor; series R3=phenyl, R8=F, X=O): 86%
- Ki (human μ-opiate receptor; [5]): 2.7 nM
- Conversion rate for mouse microsomes (300 pmol/ml) [2]: 0.0255 nmol/min/nmol P450

Molecule: CCCCC1(N2CCCC2)CCC2(CC1)OCCc1c2[nH]c2ccc(F)cc12.O=C(O)CC(O)(CC(=O)O)C(=O)O (stereo not drawn)
- % inhibition (ORL1) [1 μM] (ORL1 receptor; series R3=n-butyl, R8=F, X=O): 47%
- affinity for the μ-opioid receptor (in words) (human μ-opiate receptor): very high affinity
- % inhibition (μ) [1 μM] (human μ-opiate receptor; series R3=n-butyl, R8=F, X=O): 94%

Molecule: COc1ccc(CNC2(Cc3ccccc3)CCC3(CC2)OCCc2c3[nH]c3ccc(F)cc23)cc1 (stereo not drawn)
- % inhibition (ORL1) [1 μM] (ORL1 receptor; series R3=benzyl, R8=F, X=O): 49%
- Ki (human μ-opiate receptor; read-out: Ki (μ), series R3=benzyl, R8=F, X=O): 1200 nM

Molecule: N-{6′-Fluoro-4′,9′-dihydro-4-phenylspiro[cyclohexane-1,1′(3′H)-pyrano[3,4-b]indol]-4-yl}-pyrrolidine, 2-hydroxy-1,2,3-propanetricarboxylate (2:1)
- % inhibition (ORL1) [1 μM] (ORL1 receptor; series R3=phenyl, R8=F, X=O): 56%
- Ki (ORL1 receptor; [4]): 383 nM
- conversion with human microsomes (in words) ([1]; human liver microsomes): particularly low conversion rates
- conversion rate as share of that of V-1 ([1]; human microsomes, rate as % of V-1): around 30%
- Conversion rate for human microsomes (300 pmol/ml) [1]: 0.0105 nmol/min/nmol P450
- % inhibition (μ) [1 μM] (human μ-opiate receptor; series R3=phenyl, R8=F, X=O): 98%
- Ki (human μ-opiate receptor; [5]): 1.8 nM
- formation of the N-demethyl metabolite [3]: do not form the N-demethyl metabolite
- Conversion rate for mouse microsomes (300 pmol/ml) [2]: 0.0200 nmol/min/nmol P450

Molecule: CN1CCN(C2(c3ccccc3)CCC3(CC2)OCCc2c3[nH]c3ccc(F)cc23)CC1 (stereo not drawn)
- % inhibition (ORL1) [1 μM] (ORL1 receptor; series R3=phenyl, R8=F, X=O): 76%
- % inhibition (μ) [1 μM] (human μ-opiate receptor; series R3=phenyl, R8=F, X=O): 65%
- Ki (human μ-opiate receptor; [5]): 1410 nM

Molecule: Fc1ccc2[nH]c3c(c2c1)CCOC31CCC(c2cccs2)(N2CCC2)CC1 (stereo not drawn)
- Ki (ORL1 receptor; read-out: Ki (ORL1)): 6.6 nM
- Ki (human μ-opiate receptor; read-out: Ki (μ)): 4.8 nM

Molecule: Fc1ccc2[nH]c3c(c2c1)CCOC31CCC(c2ccccc2)(N2CCCCC2)CC1 (stereo not drawn)
- % inhibition (ORL1) [1 μM] (ORL1 receptor; series R3=phenyl, R8=F, X=O): 0%
- % inhibition (μ) [1 μM] (human μ-opiate receptor; series R3=phenyl, R8=F, X=O): 17%
- Ki (human μ-opiate receptor; [5]): 737 nM

Molecule: NC1(Cc2ccccc2)CCC2(CC1)OCCc1c2[nH]c2ccc(F)cc12 (stereo not drawn)
- % inhibition (ORL1) [1 μM] (ORL1 receptor; series R3=benzyl, R8=F, X=O): 27%
- % inhibition (μ) [1 μM] (human μ-opiate receptor; series R3=benzyl, R8=F, X=O): 90%

Molecule: c1ccc(C2(N3CCCC3)CCC3(CC2)OCCc2c3[nH]c3ccccc23)cc1 (stereo not drawn)
- % inhibition (ORL1) [1 μM] (ORL1 receptor; series R3=phenyl, R8=H, X=O): 61%
- Ki (ORL1 receptor; read-out: Ki (ORL1) mean [μm], series R3=phenyl, R8=H, X=O): 110 nM
- Ki (human μ-opiate receptor; read-out: Ki (μ) mean [μm], series R3=phenyl, R8=H, X=O): 9.8 nM

Read-outs that look alike come from different tables or passages of the source.
